Apparent affinities of Ab-95 variants for a coronavirus HR2 peptide

Source: Engelhart et al. 2022 (doi:10.1038/s41597-022-01779-4), MIT Lincoln Laboratory and A-Alpha Bio; data file from the FLAb repository.

Target: peptide PDVDLGDISGINAS, taken from heptad repeat 2 (HR2) of SARS-CoV-2 spike.

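The starting antibody came from a phage panning campaign against this peptide. Library AAYL52 holds single substitutions and randomly drawn double and triple substitutions in the CDRs. The assay is AlphaSeq: two haploid yeast populations carry antibody and antigen on their surface. The frequency of each diploid, read from paired DNA barcodes, reflects how well the two displayed proteins bind. Read counts were normalised to the haploid input and turned into Kd by a linear fit to BCL2-family pairs of known affinity, for each replicate. Mating was done three times.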

Parent: Ab-95, a human scFv built as VH, a 15-residue (Gly4Ser)3 linker, VL. Only the CDRs of the light chain vary.
VH: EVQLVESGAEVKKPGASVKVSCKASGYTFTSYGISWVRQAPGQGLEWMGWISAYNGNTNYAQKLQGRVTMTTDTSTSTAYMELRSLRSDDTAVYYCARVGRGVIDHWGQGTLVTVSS
VL: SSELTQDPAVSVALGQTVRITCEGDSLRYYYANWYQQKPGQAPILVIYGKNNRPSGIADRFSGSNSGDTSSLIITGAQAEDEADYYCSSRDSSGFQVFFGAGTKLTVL

Positions count from residue 1 of the parent VL; Y30T puts T in place of Y. Every variant below is changed at S89 of the VL (sequential numbering). Scale: log10 of Kd in nM, estimated from mating counts; low values are strong binders. A mean of the replicates is given; it leaves out those without a signal. An entry "n.d." has no value in the source: the pair was not observed among the diploids in that replicate. This suggests poor binding but is not conclusive. Parent in this assay: reference entry 2.31, copy in this library 2.25.

changes,log10 Kd (nM) by replicate,"log10 Kd (nM), mean",control signals
Y30T+Y31W+S89C,1.44 1.35 0.92,1.23,3 of 9 (4.38)
D25C+N33S+S89A,5.29 3.62 n.d.,4.46,5 of 9 (4.18)
S55K+S89R+R90P,4.67 n.d. n.d.,4.67,1 of 9 (3.46)
R28L+S89F+F95A,3.31 2.47 2.53,2.77,2 of 9 (4.75)
N52C+S89D+S93M,4.42 n.d. n.d.,4.42,1 of 9 (3.01)
K50Y+S89K+F98G,2.70 3.73 3.28,3.24,4 of 9 (3.93)
R28Q+S89D+R90P,3.14 2.79 2.11,2.68,0 of 9
N33T+P54G+S89D,n.d. n.d. n.d.,n.d.,1 of 9 (3.44)
G49M+S89H+V97W,n.d. n.d. n.d.,n.d.,1 of 9 (3.48)
N52C+S89Y,4.25 5.66 n.d.,4.96,3 of 9 (4.44)
E23N+S89W+S92C,2.51 2.16 2.50,2.39,3 of 9 (3.90)
S89Q+S92T+S93T,2.18 1.93 1.45,1.85,3 of 9 (3.12)
R28H+Y30K+S89H,2.64 2.24 2.58,2.49,2 of 9 (3.45)
D25E+G49E+S89D,3.02 3.92 3.69,3.54,4 of 9 (4.22)
S89T+D91I+F95H,2.93 3.33 4.33,3.53,5 of 9 (3.90)
L27S+N52I+S89E,3.53 n.d. n.d.,3.53,2 of 9 (3.37)
L27D+S89P,3.81 2.90 4.33,3.68,1 of 9 (4.50)
R53N+S89N+G94F,n.d. n.d. n.d.,n.d.,5 of 9 (4.09)
G24Y+A32W+S89A,n.d. 5.13 n.d.,5.13,5 of 9 (3.86)
S26I+S89C+V97Y,4.22 4.34 4.40,4.32,5 of 9 (4.14)
S89P,2.10 2.41 1.40,1.97,0 of 9
S89I+R90I,n.d. n.d. 3.51,3.51,1 of 9 (4.23)
R28D+S89Y+D91Y,2.24 1.76 2.29,2.10,2 of 9 (3.77)
S55T+S89N+R90E,4.08 n.d. n.d.,4.08,2 of 9 (3.55)
P54V+S89M+F95G,2.74 2.12 1.38,2.08,1 of 9 (3.05)
R28C+Y31M+S89N,2.46 4.06 2.49,3.00,2 of 9 (3.40)
Y31H+R53E+S89K,3.71 3.01 1.81,2.84,3 of 9 (3.90)
D25G+R53A+S89G,3.91 4.27 n.d.,4.09,3 of 9 (3.76)
S88E+S89K+F95I,2.01 3.33 3.27,2.87,2 of 9 (4.81)
E23L+S89H+Q96G,n.d. n.d. n.d.,n.d.,0 of 9
A32G+S55Y+S89H,n.d. n.d. n.d.,n.d.,0 of 9
S89M,2.91 3.62 3.99,3.51,0 of 9
A32K+S89I+F98Y,n.d. n.d. n.d.,n.d.,0 of 9
R28M+Y31H+S89C,1.84 2.07 2.06,1.99,1 of 9 (5.62)
Y31W+A32S+S89E,4.09 4.07 4.40,4.19,3 of 9 (3.91)
E23W+L27K+S89N,n.d. n.d. n.d.,n.d.,0 of 9
N52V+S89C+F98H,2.26 2.05 1.45,1.92,2 of 9 (4.17)
N33Y+S89H+R90K,n.d. n.d. n.d.,n.d.,1 of 9 (3.93)
N33S+G49H+S89D,4.52 n.d. n.d.,4.52,0 of 9
G24W+S89W+F95A,n.d. n.d. 3.95,3.95,2 of 9 (3.35)
K50A+S89G+F95S,2.16 2.15 1.57,1.96,1 of 9 (5.39)
N51K+S89D+Q96H,4.22 4.62 3.61,4.15,3 of 9 (3.89)
G24W+S89P+Q96N,n.d. n.d. n.d.,n.d.,3 of 9 (3.82)
S88Q+S89H+S93N,2.38 n.d. 2.01,2.20,1 of 9 (4.22)
P54I+S89T+V97G,3.44 n.d. 4.01,3.73,3 of 9 (4.77)
Y29A+S89N+F98P,4.55 n.d. n.d.,4.55,0 of 9
D25N+S89Y+S93G,1.43 1.59 1.81,1.61,0 of 9
P54C+S89P+S93C,n.d. n.d. n.d.,n.d.,2 of 9 (3.85)

Repeated from above, the 4 best binders with a signal in all replicates:

{"changes": "Y30T+Y31W+S89C", "log10 Kd (nM) by replicate": "1.44 1.35 0.92", "log10 Kd (nM), mean": "1.23", "control signals": "3 of 9 (4.38)"}
{"changes": "D25N+S89Y+S93G", "log10 Kd (nM) by replicate": "1.43 1.59 1.81", "log10 Kd (nM), mean": "1.61", "control signals": "0 of 9"}
{"changes": "S89Q+S92T+S93T", "log10 Kd (nM) by replicate": "2.18 1.93 1.45", "log10 Kd (nM), mean": "1.85", "control signals": "3 of 9 (3.12)"}
{"changes": "N52V+S89C+F98H", "log10 Kd (nM) by replicate": "2.26 2.05 1.45", "log10 Kd (nM), mean": "1.92", "control signals": "2 of 9 (4.17)"}

As a blank, each scFv also met three strains without target: over library AAYL52, 28% of these pairings were detected, typically at 3.91 and seldom below 2.90. Also given: how often the same scFv was detected with the empty control strains, with their mean in brackets.